The text below walks through data of US7825118B2, “Inhibitors of bruton's tyrosine kinase” (Pharmacyclics, Inc., priority 2006, dated 2010).

By UniProt entry, the sequences of proteins in these tests, tags left out. Where a name states a change or a piece, a line headed by the entry shows the natural chain unless it says otherwise.
UniProt Q06187: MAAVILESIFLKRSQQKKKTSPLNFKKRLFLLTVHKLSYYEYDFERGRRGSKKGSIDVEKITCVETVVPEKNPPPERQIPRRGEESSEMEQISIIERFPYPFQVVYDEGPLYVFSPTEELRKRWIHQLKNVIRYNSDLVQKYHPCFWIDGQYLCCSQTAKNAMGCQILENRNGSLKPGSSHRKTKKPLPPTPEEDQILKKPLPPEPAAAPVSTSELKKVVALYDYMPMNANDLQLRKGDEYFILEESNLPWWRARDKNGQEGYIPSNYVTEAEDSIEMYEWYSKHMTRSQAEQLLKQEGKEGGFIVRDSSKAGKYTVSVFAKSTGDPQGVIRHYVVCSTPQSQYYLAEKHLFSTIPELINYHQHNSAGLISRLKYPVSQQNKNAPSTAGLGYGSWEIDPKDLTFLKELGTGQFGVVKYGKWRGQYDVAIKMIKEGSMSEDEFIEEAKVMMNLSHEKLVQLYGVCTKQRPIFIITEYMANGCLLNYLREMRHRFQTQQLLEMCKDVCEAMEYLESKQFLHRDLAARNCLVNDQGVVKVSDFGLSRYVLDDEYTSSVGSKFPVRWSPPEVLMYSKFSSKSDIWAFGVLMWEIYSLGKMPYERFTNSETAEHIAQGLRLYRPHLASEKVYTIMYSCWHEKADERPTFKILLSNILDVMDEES

The test addresses Btk (Homo sapiens, UniProt Q06187). The experiment in a line: Btk acellular kinase assay (TR-FRET). In general terms: TR-FRET usually uses a lanthanide donor and a delayed reading to cut background.

`C=CS(=O)(=O)N1CCCC(n2nc(-c3ccc(Oc4ccccc4)cc3)c3c(N)ncnc32)C1` (stereo not shown) [Compound 6, 1-(3-(4-amino-3-(4-phenoxyphenyl)-1H-pyrazolo[3,4-d]pyrimidin-1-yl)piperidin-1-yl)sulfonylethene] gave an IC50 of 0.52 nM.

What is called IC50 is the concentration that inhibits the measured activity by half. Higher therefore signals lower potency.
